In general, stoichiometry N refers to the number of molecules, sites or subunits per partner or assembly.

“And” between values parts separate entries of the source, which are not always exact repeats. Identical values can stand only once.

Assay [1] has as its target Mus musculus phosphodiesterase 5 isoform A1 (MmPDE5A1) (Mus musculus). Nature of the assay: SEC-SAXS; SE-HPLC-SAXS, SWING beamline; Superdex S200 5/150, 50 mM HEPES pH 7.5, 75 mM NaCl, 37.5 mM MgCl2, 293 K, 0.2 mL/min; 40 uL injected at 3 and 1 mg/mL; fractions of dimer and tetramer by gaussian deconvolution (US-SOMO). (In general: SEC sorts molecules by how far they enter the pores of the column.)

The target is the same in assay [2]. Nature of the assay: negative-stain transmission electron microscopy; purified samples diluted to 0.6 mg/mL, uranyl acetate 2%, no ligands or effectors, 120 kV.
Assay [3] shares this target. The assay can be described thus: native gel or EMSA; native PAGE, 5% nondenaturing acrylamide gel, Tris-glycine pH 8.3, 4 °C, 1.0 ug purified protein a lane, freshly purified or preincubated at 30 °C (cGMP, sildenafil, EDTA, DTT, diamide, NEM) in 50 mM HEPES pH 7.5, 50 mM NaCl, 15 mM MgCl2; Coomassie staining.
Assay [4] addresses Mus musculus phosphodiesterase 5 isoform A2 (MmPDE5A2) (Mus musculus). The assay can be described thus: SEC-SAXS; SE-HPLC-SAXS, SWING beamline; Superdex S200 5/150, 50 mM HEPES pH 7.5, 75 mM NaCl, 37.5 mM MgCl2, 293 K, 0.2 mL/min; 40 uL injected at 3 and 1 mg/mL; fractions of dimer and tetramer by gaussian deconvolution (US-SOMO).
Assay [5] shares this target. The assay can be described thus: negative-stain transmission electron microscopy; purified samples diluted to 0.6 mg/mL, uranyl acetate 2%, no ligands or effectors, 120 kV.
Assay [6] shares this target. The assay can be described thus: native gel or EMSA; native PAGE, 5% nondenaturing acrylamide gel, Tris-glycine pH 8.3, 4 °C, 1.0 ug purified protein a lane, freshly purified or preincubated at 30 °C (cGMP, sildenafil, EDTA, DTT, diamide, NEM) in 50 mM HEPES pH 7.5, 50 mM NaCl, 15 mM MgCl2; Coomassie staining. (In general: A gel shift assay detects complexes by their altered migration in electrophoresis.)

Assay [7] has the same target. Nature of the assay: native gel or EMSA; native PAGE after incubation with DTNB (increasing concentrations, different times; for A3 also 30 °C 1 h with or without EDTA, cGMP, sildenafil, NEM); 1 ug purified protein a lane; cysteines modified by DTNB.
For assay [8], the target named is Mus musculus phosphodiesterase 5 isoform A3 (MmPDE5A3) (Mus musculus). The assay can be described thus: non-reducing SDS-PAGE of unboiled samples; MmPDE5A3 alone or with sildenafil or DTT, not boiled, no reducing agent in the loading buffer.
The target is the same in assay [9]. The assay can be described thus: SEC-SAXS; SE-HPLC-SAXS, SWING beamline; Superdex S200 5/150, 50 mM HEPES pH 7.5, 75 mM NaCl, 37.5 mM MgCl2, 293 K, 0.2 mL/min; 40 uL injected at 3 and 1 mg/mL; fractions of dimer and tetramer by gaussian deconvolution (US-SOMO).
The target is the same in assay [10]. Nature of the assay: non-reducing SDS-PAGE of unboiled samples; MmPDE5A3 after incubation with DTNB with or without NEM, not boiled, no reducing agent in the loading buffer.
The target is the same in assay [11]. The assay can be described thus: negative-stain transmission electron microscopy; purified samples diluted to 0.6 mg/mL, uranyl acetate 2%, no ligands or effectors, 120 kV.
The target is the same in assay [12]. The assay can be described thus: native gel or EMSA; native PAGE, 5% nondenaturing acrylamide gel, Tris-glycine pH 8.3, 4 °C, 1.0 ug purified protein a lane, freshly purified or preincubated at 30 °C (cGMP, sildenafil, EDTA, DTT, diamide, NEM) in 50 mM HEPES pH 7.5, 50 mM NaCl, 15 mM MgCl2; Coomassie staining.
For assay [13] the target is unchanged. Nature of the assay: native gel or EMSA; native PAGE after incubation with DTNB (increasing concentrations, different times; for A3 also 30 °C 1 h with or without EDTA, cGMP, sildenafil, NEM); 1 ug purified protein a lane; cysteines modified by DTNB.

With “Mus musculus phosphodiesterase 5 isoform A1 (MmPDE5A1) (enzyme)”, in [1], the % Dimer is 60%; the % Tetramer came out at 40%; the stoichiometry N is 4 and 2. Further, the stoichiometry N in [2] is 4 and 2. Also, the stoichiometry N in [3] is 2 and 4.

In [4], “Mus musculus phosphodiesterase 5 isoform A2 (MmPDE5A2) (from UniProt A0A0G2JF67 1-833) (enzyme)” had a % Dimer of 97%. In assay [4], the % Tetramer was determined as 3%. Moreover, the stoichiometry N in [4] was 2; in [5], 2; in assay [6], 2; in assay [7] it was 4.

As to “Mus musculus phosphodiesterase 5 isoform A3 (MmPDE5A3) (enzyme)”, the stoichiometry N was 2 in [8]; 2 in [9]; 4 and 6 and 8 in assay [10]; 2 in assay [11]; 2 in assay [12]; more than 4 in [13]. The substance further came in with a % Dimer in assay [9] of 100%. Further, in assay [9], the % Tetramer stood at 0%.

These data come from article PMC9862819, “Structural Characterization of Murine Phosphodiesterase 5 Isoforms and Involvement of Cysteine Residues in Supramolecular Assembly” (International Journal of Molecular Sciences, 2023).
